# scFv variants of Ab-95 (light chain) against a SARS-CoV-2 spike peptide

From the AlphaSeq antibody data of Engelhart et al. 2022 (doi:10.1038/s41597-022-01779-4), copy in the FLAb collection.

The target is the same throughout: PDVDLGDISGINAS, from the HR2 region of SARS-CoV-2 spike.

Ab-95 is the parent antibody, in scFv form: VH, then a (GGGGS)3 linker, then VL. The heavy chain is unchanged in all variants.
VH: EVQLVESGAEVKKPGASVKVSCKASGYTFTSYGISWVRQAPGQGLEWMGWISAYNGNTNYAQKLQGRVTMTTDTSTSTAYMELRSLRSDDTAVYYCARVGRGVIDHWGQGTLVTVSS
VL: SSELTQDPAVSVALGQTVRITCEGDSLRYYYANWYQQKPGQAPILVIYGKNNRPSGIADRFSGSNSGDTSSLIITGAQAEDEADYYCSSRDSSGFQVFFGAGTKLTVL

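Phage display of a naive human antibody library on the peptide gave the parent. In library AAYL52, one, two or three CDR residues were substituted; doubles and triples were drawn at random. AlphaSeq pools MATa yeast showing the antibodies with MATalpha yeast showing the peptide. Pairs that bind mate more often; barcode pairs of the diploids are counted by sequencing. A regression on co-assayed BCL2-family reference pairs converts the normalised counts of each replicate to an apparent Kd. Each pool was mated in three replicate cultures.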

Variants are written as CDR1, CDR2 and CDR3 of the light chain (limits as in the source). Parent: EGDSLRYYYAN, GKNNRPS, SSRDSSGFQVF.
This list gathers variants with a substitution at R28 (VL, numbered from residue 1).
Values are apparent Kd, the geometric mean of the replicates that gave a signal; lower means stronger binding.
A pair that was not seen in any replicate is written "nd"; this usually means weak binding, but a binder can also be missed.
Empty control strains, which show no peptide, gave a signal in 28% of pairings with library AAYL52; the median was 8.2 µM and 95% of these signals were weaker than 800 nM. No background was subtracted. For each scFv, signals with the empty controls are counted beside the result.
Parent in this assay: reference entry 200 nM, copy in this library 180 nM.

| CDR-L1 | CDR-L2 | CDR-L3 | Kd | detected | empty controls |
|---|---|---|---|---|---|
| EGDSLNYYYAN | GKNNRPS | SQRDTSGFQVF | 1.0 µM | 3/3 | 3/9 |
| EGDRLQYYYAN | GKNNRPS | SSRASSGFQVF | 5.5 µM | 2/3 | 3/9 |
| EYNSLYYYYAN | GKNNRPS | SSRDSSGFQVF | nd | 0/3 | 3/9 |
| EQDSLSYYYAN | GKNNRPS | SSRDSSGFQVF | 13 µM | 2/3 | 2/9 |
| CGDSLGYYYAN | GKNQRPS | SSRDSSGFQVF | 250 nM | 3/3 | 3/9 |
| EGDSLHYYYAN | GVNNRPS | SSRDSSGFQPF | 9.9 µM | 1/3 | 1/9 |
| YGDRLYYYYAN | GKNNRPS | SSRDSSGFQVF | 1.0 µM | 1/3 | 2/9 |
| EGDSLDYYYAN | GKNNRCS | SSRDSSFFQVF | nd | 0/3 | 1/9 |
| EGDSLPYYYAN | GKNNNPS | SSRDSSGFQRF | nd | 0/3 | 1/9 |
| SGDNLNYYYAN | GKNNRPS | SSRDSSGFQVF | 560 nM | 3/3 | 4/9 |
| EGDSLQYYYAN | AKNNRPS | SSRDSSGEQVF | 2.9 µM | 3/3 | 3/9 |
| EGQSLLYYYAN | GKNRRPS | SSRDSSGFQVF | 430 nM | 3/3 | 1/9 |
| EGDSLFYYYAN | GKNNRPS | PSRDSSGFWVF | 9.6 µM | 2/3 | 2/9 |
| EGDSLVYYYAN | GGNNRVS | SSRDSSGFQVF | 420 nM | 3/3 | 4/9 |
| EGDSLGYMYAN | GKNNRPS | SSRDSSGFQVF | 57 nM | 3/3 | 5/9 |
| EGDSLEYYYAN | GKNNRPS | SSRDASGFQVN | 11 µM | 1/3 | 0/9 |
| EGDSLVYYYAN | FKNNRPS | SSRDSSGFQVF | nd | 0/3 | 2/9 |
| EQDSLIYYYAN | GKNNRPS | SSRDSSNFQVF | nd | 0/3 | 0/9 |
| EGDSLCYYYAN | GKNNRPS | ASRFSSGFQVF | 340 nM | 2/3 | 4/9 |
| EGPSGCYYYAN | GKNNRPS | SSRDSSGFQVF | 8.1 µM | 3/3 | 2/9 |
| EGDSLHYYLAN | GKNNRPS | SSRDSSGFHVF | 260 nM | 3/3 | 6/9 |
| EGDSLCYYYAN | GKNARPS | SSRDMSGFQVF | 4.8 µM | 2/3 | 1/9 |
| EGNSLWYYYAN | GKNNRPS | SSRWSSGFQVF | 13 µM | 2/3 | 4/9 |
| EGDSLKYYYAN | GKNNRPS | GSRDMSGFQVF | 160 nM | 3/3 | 4/9 |
| EGDSLVYYYAN | GKNNRPS | SSRDTSGFQVF | 1.2 µM | 2/3 | 5/9 |
| EGDSLSYYYAN | GKNNRPS | SSADSSGFQVF | 86 nM | 3/3 | 1/9 |
| QCDSLTYYYAN | GKNNRPS | SSRDSSGFQVF | 1.3 µM | 3/3 | 2/9 |
| DGDSLIYYYAN | GKNNRPS | SSRDSSGFCVF | 33 µM | 3/3 | 4/9 |
| EGDSLTYYPAN | GKNNRPY | SSRDSSGFQVF | 51 nM | 3/3 | 0/9 |
| EGDSLFYYYAN | GKNNRPS | SSRDSSGKPVF | 720 nM | 3/3 | 3/9 |
| EGDSLDYYYQN | GKNNRPS | SSRDMSGFQVF | 1.6 µM | 2/3 | 0/9 |
| EGDSLAYYYAN | GKNNRPS | SMRDSSGFQVQ | 1.0 µM | 1/3 | 0/9 |
| EGDSLDYYYAN | GKNNRNS | SSRDSSGFQVF | 38 µM | 3/3 | 2/9 |
| EDDSLLYKYAN | GKNNRPS | SSRDSSGFQVF | 1.2 µM | 2/3 | 3/9 |
| EHDSLNYYYAN | GKNNRPS | SSRMSSGFQVF | 900 nM | 3/3 | 3/9 |
| EGDSLPYYYWN | GKNNRPS | SSRDSSGFDVF | 5.4 µM | 1/3 | 1/9 |
| EGDSLQYYYAN | GKNNRPS | SSRDSGGFQVF | 150 nM | 3/3 | 2/9 |
| EDDSLMYYYAN | GKNNRPS | SVRDSSGFQVF | 890 nM | 3/3 | 3/9 |
| EGDSLKYYYAN | GKNNRPS | SSRPSSGFQGF | 150 nM | 3/3 | 3/9 |
| EGDSLGYYSAN | GKYNRPS | SSRDSSGFQVF | 240 nM | 3/3 | 2/9 |
| EGDSLSYYYAN | GKNQRPS | SSRYSSGFQVF | 600 nM | 3/3 | 4/9 |
| EGDSLPYYYAN | GKNNRYS | SSRDMSGFQVF | 6.4 µM | 3/3 | 6/9 |
| EGDQLEYYYAN | GKNNRPS | HSRDSSGFQVF | nd | 0/3 | 1/9 |
| EGDSLQYYYAN | GKNNRPP | SSRDSSGFQTF | 2.0 µM | 3/3 | 2/9 |
| EGDSLEYYYAN | GKNNRPS | SSRMSSGDQVF | 2.1 µM | 3/3 | 2/9 |
| EGDSLVYYYAN | GKNNRPS | KSRDSSGLQVF | 460 µM | 1/3 | 4/9 |
| EGDSLAYYYAN | GKNNRPS | SSRDSSGYQVF | 73 nM | 3/3 | 2/9 |
| EGDSLSYYYAN | GKNNRPS | SSRDSQKFQVF | 580 nM | 3/3 | 3/9 |
| EGDSLKYYYAN | GKNNRPS | SSRDWSRFQVF | 1.2 µM | 3/3 | 3/9 |
| EGDSLCYYYRN | KKNNRPS | SSRDSSGFQVF | 18 µM | 1/3 | 0/9 |
| EGDSLNYGYAN | GKNNRPS | SSRDSSGFQQF | 7.4 nM | 3/3 | 6/9 |
| EGLSLYYYYAW | GKNNRPS | SSRDSSGFQVF | 14 µM | 1/3 | 3/9 |
| EGESLSYYYAN | GKNNRKS | SSRDSSGFQVF | 850 nM | 3/3 | 3/9 |
| EGDSLKYYYAN | GKNNPPS | SSRDSSEFQVF | 4.8 µM | 1/3 | 1/9 |
| EGPSLQYYYAN | GKNNRPS | SSVDSSGFQVF | nd | 0/3 | 1/9 |
| EGDSLANYYAN | GKNNRPS | SSRDSSGFQVF | 11 nM | 3/3 | 1/9 |
| EVDSLYYYYAN | GKNNRPS | SSRDSSGFQLF | 19 µM | 2/3 | 2/9 |
| EGDSLFYYFAN | GKNNRPS | SSRDSSGFQVF | 1.4 µM | 3/3 | 2/9 |
| EGDSLAYYYAN | GKWNRPS | SSRDSPGFQVF | 220 µM | 1/3 | 2/9 |
| EGDSLMYYYAN | IKNNGPS | SSRDSSGFQVF | 82 µM | 3/3 | 3/9 |
| EGDSLSYYYAN | GKNNRPV | SSLDSSGFQVF | 260 µM | 1/3 | 1/9 |
| EGDSLVYYYAV | GKNNRPK | SSRDSSGFQVF | 1.1 µM | 3/3 | 1/9 |
| EGDSLWAPYAN | GKNNRPS | SSRDSSGFQVF | 93 nM | 3/3 | 2/9 |
| EGDELLYYYAN | GKNNRPS | SSRDHSGFQVF | 11 µM | 3/3 | 2/9 |
| PGDSLGYYYAN | GKNNRPT | SSRDSSGFQVF | 5.3 µM | 2/3 | 0/9 |
| EGDSLQYYYWN | GKNNHPS | SSRDSSGFQVF | 400 µM | 1/3 | 3/9 |
| EGDSLAYYYAN | GKNNRPF | SSRDSPGFQVF | 4.3 µM | 3/3 | 4/9 |
| EGDSLGYYYAN | GKWNRPS | SSRDSSGFAVF | 1.9 µM | 3/3 | 2/9 |
| QGDSLKYYYAN | GKNNRPS | SSRDSSFFQVF | 21 nM | 3/3 | 1/9 |
| EGDSLAYYYAN | GKNNRGS | SSRDSSGFTVF | 110 nM | 3/3 | 2/9 |
| EGDSLHYYYAN | GKNNGPS | SSRDWSGFQVF | 2.0 µM | 3/3 | 2/9 |
| EGDSLQYYYAN | GKNNRPS | SSRTSSRFQVF | 23 µM | 3/3 | 5/9 |
| EGDSLIYYYAE | GWNNRPS | SSRDSSGFQVF | 13 µM | 2/3 | 0/9 |

The first 12 entries again:

| CDR-L1 | CDR-L2 | CDR-L3 | Kd | detected | empty controls |
|---|---|---|---|---|---|
| EGDSLNYYYAN | GKNNRPS | SQRDTSGFQVF | 1.0 µM | 3/3 | 3/9 |
| EGDRLQYYYAN | GKNNRPS | SSRASSGFQVF | 5.5 µM | 2/3 | 3/9 |
| EYNSLYYYYAN | GKNNRPS | SSRDSSGFQVF | nd | 0/3 | 3/9 |
| EQDSLSYYYAN | GKNNRPS | SSRDSSGFQVF | 13 µM | 2/3 | 2/9 |
| CGDSLGYYYAN | GKNQRPS | SSRDSSGFQVF | 250 nM | 3/3 | 3/9 |
| EGDSLHYYYAN | GVNNRPS | SSRDSSGFQPF | 9.9 µM | 1/3 | 1/9 |
| YGDRLYYYYAN | GKNNRPS | SSRDSSGFQVF | 1.0 µM | 1/3 | 2/9 |
| EGDSLDYYYAN | GKNNRCS | SSRDSSFFQVF | nd | 0/3 | 1/9 |
| EGDSLPYYYAN | GKNNNPS | SSRDSSGFQRF | nd | 0/3 | 1/9 |
| SGDNLNYYYAN | GKNNRPS | SSRDSSGFQVF | 560 nM | 3/3 | 4/9 |
| EGDSLQYYYAN | AKNNRPS | SSRDSSGEQVF | 2.9 µM | 3/3 | 3/9 |
| EGQSLLYYYAN | GKNRRPS | SSRDSSGFQVF | 430 nM | 3/3 | 1/9 |